In ChEMBL document CHEMBL1131182, “Anti-AIDS agents. 34. Synthesis and structure-activity relationships of betulin derivatives as anti-HIV agents” (J Med Chem, 1998) one finds selectivity ratio data, which are given here for one molecule.

The nature of the series: Therapeutic Index is the […] of the IC50 to that of EC50. It counts as cell-based. Conditions: human, H9 cells; read-out: TI.

In the case of `Cc1cn([C@H]2C[C@H](N=[N+]=[N-])[C@@H](CO)O2)c(=O)[nH]c1=O` [ZIDOVUDINE], the selectivity ratio was determined as 33300.
